The results in this text go back to patent publication US20230226074A1, “METHODS OF USE FOR PYRIMIDINES AS FERROPORTIN INHIBITORS” (Global Blood Therapeutics, Inc., priority 2020, published 2023).

The chains behind the UniProt entries cited, without tags or fusion partners.
UniProt Q9NP59, whole entry: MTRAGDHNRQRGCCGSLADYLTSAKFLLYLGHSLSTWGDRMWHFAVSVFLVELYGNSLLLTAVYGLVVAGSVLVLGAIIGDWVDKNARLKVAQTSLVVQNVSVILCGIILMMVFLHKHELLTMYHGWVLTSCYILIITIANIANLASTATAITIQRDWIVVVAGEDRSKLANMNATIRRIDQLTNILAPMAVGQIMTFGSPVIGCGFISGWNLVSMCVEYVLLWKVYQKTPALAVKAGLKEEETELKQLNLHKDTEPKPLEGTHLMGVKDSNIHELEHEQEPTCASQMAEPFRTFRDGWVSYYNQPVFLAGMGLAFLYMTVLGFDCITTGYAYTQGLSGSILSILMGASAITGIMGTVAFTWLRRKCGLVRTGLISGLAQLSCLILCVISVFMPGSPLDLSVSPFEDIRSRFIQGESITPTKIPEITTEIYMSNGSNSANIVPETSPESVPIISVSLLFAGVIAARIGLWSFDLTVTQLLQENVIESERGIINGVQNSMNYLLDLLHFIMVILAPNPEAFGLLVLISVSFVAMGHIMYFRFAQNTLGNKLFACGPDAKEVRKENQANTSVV

In this test the target is human ferroportin (Homo sapiens, UniProt Q9NP59). As to the kind of experiment: In-vitro ferroportin internalization assay (luciferase reporter). The class given is cell-based. The conditions noted are these: average pEC50; stably-transfected CHO cell line expressing human ferroportin tagged to a luciferase reporter; 6 h incubation with test compound. The protocol:
The protocol for this assay is generally as described in WO2018/128828, incorporated herein by reference in its entirety. Functional internalization of ferroportin protein was measured using a stably-transfected CHO cell line expressing the human ferroportin tagged to a luciferase reporter. Cells were plated for 24 h in the presence of ferric ammonium citrate (FAC). Ferroportin protein expression was induced with doxycycline for 24 h. The next day, the compounds were added. Test compounds were dissolved in DMSO. Cells were incubated with the test compounds for 6 h, and subsequently luciferase activity was measured using the Nano-Glo Luciferase Assay System and Glomax (Promega, Madison, Wis.). The average pEC50 was determined for the test compounds.
A general note: In a reporter assay the amount or activity of a reporter protein is the signal.

Molecules are shown by their SMILES.

Usually pEC50 stands for the negative decadic logarithm of the EC50, by convention in mol/L. The low end stands for a large EC50, the high end for a small EC50.

In the case of `COc1ccc(NC(=O)CN(C)c2nc(-c3cc(OC(F)(F)F)ccn3)nc3c2CCC3)cn1`, the negative logarithm of the EC50 (pEC50) worked out at 7.9.
